S100A4 MyoIIA: S100A4-myosin IIA interaction inhibition; 0.14% of 360,000 active; S100A4/TAMRA-MyoIIA peptide fluorescence polarization; inhibition, % at 10.7 µM; P26447; AID 652163;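 active means mean inhibition of at least 70% across replicates, with every replicate also reaching that level; inconclusive means mean inhibition reaches 70% but some replicates fall short; inactive means mean inhibition below 70%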
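Compound dosing: one dose per compound; test system: human S100A4 monomer with TAMRA-labelled myosin IIA peptide; probe or stimulus: TAMRA-labelled myosin IIA heavy-chain peptide probe, 5 nM; medium: HEPES buffer with Ca2+, pH 7.2; schedule: 5 min incubation before reading; benchmarks: neutral control DMSO, positive control TFP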
Yeast UUG start: modulators of yeast start codon fidelity, primary screen, whole organism, S. cerevisiae, single point, plate reader | AID 602363, 2012 | actives 0.13% (n = 350,000) | activity score, % at 18.7 µM | S. cerevisiae UUG-firefly luciferase reporter, luminescence/redox ratio;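 active means replicate mean at a twofold rise or more, about +100% in these data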;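 further: firefly luciferase made from a UUG start codon reports start codon fidelity; reporter light over untreated wells divided by growth signal over untreated wells; some hits fall short of that in this replicate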
PDI turbidity: blocks human protein disulfide isomerase activity; P07237; PDI insulin aggregation turbidity, A650, 90 min; inhibition, % at 10 µM; 0.052% of 350,000 active; AID 588391;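 active means mean inhibition across replicates of 30% or more, whatever share of single replicates reach that level; inconclusive means mean inhibition below 30% while every single replicate reaches 30%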
ERp5 block: ERp5 (human) disulfide isomerase inhibition; AID 651711; 0.05% of 350,000 active; Q15084; inhibition, % at 9.99 µM; ERp5 insulin aggregation, absorbance 650 nm, 90 min;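 active means mean replicate inhibition above about 25%, with every replicate also reaching it, limit read from the data, passing the limit was not always enough; inconclusive means only one of those two criteria met; inactive means neither criterion met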
FGF22 binding: binders of recombinant human FGF22 by thermal shift. Q9HCT0. SYPRO orange fluorescence; percent of sucrose octasulfate shift, DMSO zero. activity (Tm shift, normalised), % at 9.99 µM. 1.5% of 340,000 active. AID 651658;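 active means mean Tm shift, scaled 0 neutral to 100 positive control, at about 1.3% or above, every replicate too, limit read from the data; inconclusive means no clear call, values can overlap the other calls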
SIRT5 inh: inhibitors of human sirtuin-5 desuccinylase; Q9NXA8; 1.1% of 330,000 active; inhibition, % at 15 µM; AID 652115; Purified SirT5, succinyl-peptide AMC, trypsin-coupled fluorescence; in the data active means inhibition above about 15%; inconclusive means no clear call, values can overlap the other calls
Numbers stand for hits; 0 = inactive; ? = inconclusive; - = not tested or not shown; + = active, no number. Hits are enriched below; roughly 2.2% of the tested compounds scored in any of these assays.

SMILES | S100A4 MyoIIA | Yeast UUG start | PDI turbidity | ERp5 block | FGF22 binding | SIRT5 inh
COc1cccc(CNC(=O)C[C@@H]2CC[C@@H]3[C@@H](COc4ccc(NC(=O)c5cccs5)cc4C(=O)N3C)O2)c1 | 0 | - | - | 0 | 0 | 0
CN1C(=O)c2cc(NS(=O)(=O)c3ccc(Cl)cc3)ccc2OC[C@H]2O[C@@H](CC(=O)N3CCc4ccccc4C3)CC[C@@H]21 | 0 | 0 | - | 0 | - | 16
CCC(=O)Nc1ccc2c(c1)C(=O)N(C)[C@@H]1CC[C@@H](CC(=O)NCC3CC3)O[C@@H]1CO2 | 0 | 0 | - | 48 | 0 | 0
COc1ccc(NC(=O)N(C)C[C@@H]2Oc3c(NC(=O)Nc4ccc(C(F)(F)F)cc4)cccc3C(=O)N([C@H](C)CO)C[C@@H]2C)cc1 | - | 0 | - | - | - | -
CN1C(=O)c2cc(NC(=O)Cc3cccs3)ccc2OC[C@H]2O[C@H](CC(=O)N[C@H]3CCN(Cc4ccccc4)C3)CC[C@@H]21 | 96 | - | - | 0 | 0 | 0
CCC(=O)Nc1ccc2c(c1)C(=O)N(C)[C@H]1CC[C@@H](CC(=O)NCC3CC3)O[C@@H]1CO2 | 0 | 0 | - | 78 | 0 | 0
CN1C(=O)c2cc(NS(C)(=O)=O)ccc2OC[C@H]2O[C@H](CC(=O)NCc3ccc(-c4ccccc4)cc3)CC[C@@H]21 | - | - | - | 0 | 0 | 0
CN1C(=O)c2cc(NS(C)(=O)=O)ccc2OC[C@@H]2O[C@@H](CC(=O)NCc3ccc(-c4ccccc4)cc3)CC[C@@H]21 | 0 | - | - | 0 | 0 | 15
CN1C(=O)c2cc(NC(=O)Cc3cccs3)ccc2OC[C@@H]2O[C@@H](CC(=O)N[C@H]3CCN(Cc4ccccc4)C3)CC[C@H]21 | 0 | - | - | 0 | 0 | 0
CC(=O)NCCC(=O)N1CCCC(CNC(=O)c2ccc(-c3ccccc3)cc2)C1 (stereo unspecified) | 0 | - | 0 | 0 | 43 | 0
CCN(CC)C(=O)C1CCN(Cc2cn(C)nc2-c2ccc(Oc3ccccc3)cc2)CC1 | 0 | - | 0 | 0 | 0 | 0
C[C@H]1C(=O)N(C)CCN1Cc1cn(C)nc1-c1ccc(Oc2ccccc2)cc1 | 0 | 0 | 0 | 0 | 44 | 0
O=C(Nc1ccc(F)cc1)N[C@H]1CC[C@@H](CC(=O)N2CCCCC2)O[C@H]1CO | 0 | 0 | - | 0 | 0 | 0
CC1=NN(C(=O)c2ccc(Cn3cc([N+](=O)[O-])cn3)cc2)C(O)(C(F)(F)F)C1 (stereo unspecified) | 0 | - | 0 | ? | 0 | 18
COCC(=O)Nc1ccc2c(c1)[C@H]1C[C@H](CC(=O)NCCN3CCCCC3)O[C@@H](CO)[C@H]1O2 | 0 | 0 | - | 0 | 0 | 0
CCOC(=O)CSc1nc2nc(C)cc(C)n2n1 | 0 | 0 | - | 0 | 0 | 0
CCOc1ccc(C(C)=O)cc1CSc1nc2nc(C)cc(C)n2n1 | 0 | - | 0 | 0 | 43 | 0
Cc1ccc(S(=O)(=O)N(C)C)cc1NC(=O)CSc1nnnn1-c1ccc(O)cc1 | 0 | 0 | 0 | 0 | 0 | 0
CN(C)S(=O)(=O)c1ccc(Cl)c(NC(=O)CSc2nnnn2-c2ccc(O)cc2)c1 | 0 | - | 41 | 0 | 0 | 0
Cn1nnnc1SCC(=O)Nc1cc(S(=O)(=O)N2CCCC2)ccc1Cl | 0 | - | 0 | 0 | 0 | 0
CS(=O)(=O)c1ccc(Cl)c(NC(=O)CSc2nnc(C3CC3)n2C2CC2)c1 | 0 | 0 | 0 | 0 | 1.4 | 0
O=C(CSc1nnnn1C1CC1)Nc1cc(S(=O)(=O)N2CCCC2)ccc1Cl | 0 | 0 | 0 | 0 | 43 | 0
O=C(C[C@@H]1CC[C@H](NC(=O)C2CCC2)[C@@H](CO)O1)NCCCN1CCOCC1 | 0 | 0 | - | 0 | 0 | 0
C[C@@H]1CN([C@@H](C)CO)S(=O)(=O)c2ccc(C3=CCCC3)cc2O[C@H]1CN(C)C(=O)C1CCCCC1 | 0 | 0 | - | 0 | 0 | 0
C[C@@H]1CN([C@H](C)CO)C(=O)c2cc(C#CC3(O)CCCC3)cnc2O[C@H]1CN(C)C(=O)C1CCOCC1 | 0 | - | - | 0 | 0 | 0
SMILES | S100A4 MyoIIA | Yeast UUG start | PDI turbidity | ERp5 block | FGF22 binding | SIRT5 inh
Cc1nn(CC(=O)O)c(C)c1Cl | - | 0 | 0 | - | - | -
Cc1c(Cl)c(=O)n2c(=O)c(Cl)c(C)n12 | 0 | 0 | 0 | 0 | 44 | 0
CN(C)/C=C1\C=C2C(=O)c3ccccc3N2C1=O | 76 | - | 0 | 0 | 0 | 0
COc1ccc(NC(=O)Nc2ccc3c(c2)C(=O)N([C@@H](C)CO)C[C@@H](C)[C@@H](CN(C)Cc2ccc(-c4ccccc4)cc2)O3)cc1 | 0 | 0 | - | 0 | 0 | 17
COc1ccc(NC(=O)Nc2ccc3c(c2)C(=O)N([C@@H](C)CO)C[C@@H](C)[C@@H](CN(C)Cc2ccncc2)O3)cc1 | 0 | 0 | - | 0 | 0 | 27
COc1ccc(NC(=O)Nc2ccc3c(c2)C(=O)N([C@@H](C)CO)C[C@@H](C)[C@@H](CN(C)Cc2ccc(C(=O)Nc4ccccc4N)cc2)O3)cc1 | 0 | 0 | - | 0 | 0 | 16
COc1ccc(NC(=O)Nc2ccc3c(c2)C(=O)N([C@@H](C)CO)C[C@@H](C)[C@H](CN(C)Cc2ccncc2)O3)cc1 | 0 | 0 | - | 0 | 0 | 0
COCC#Cc1ccc2c(c1)O[C@H](CN(C)Cc1ccccn1)[C@@H](C)CN([C@H](C)CO)S2(=O)=O | 0 | - | - | 0 | 0 | 0
Cc1ccc(S(=O)(=O)Nc2cccc3c2O[C@@H](CN(C)C(=O)NC2CCCCC2)[C@H](C)CN([C@H](C)CO)C3=O)cc1 | 0 | 0 | - | 0 | 0 | 0
O=C(C[C@H]1C[C@@H]2c3cc(NC(=O)Nc4ccccc4)ccc3O[C@@H]2[C@H](CO)O1)NCC(F)(F)F | 0 | 0 | - | 0 | - | 0
CC1=[N+](C)c2c(ccc3cccnc23)C1(C)C | 159 | - | 0 | 0 | 0 | 0
COc1cccc(S(=O)(=O)N[C@H]2CC[C@@H](CCn3cc(-c4ccccn4)nn3)O[C@@H]2CO)c1 | 0 | 0 | - | 0 | 0 | 0
Cc1ccsc1/C=N/Nc1ncnc2nc[nH]c12 | 0 | - | 0 | 0 | 0 | 0
C(=N\Nc1ncnc2nc[nH]c12)/c1cccs1 | 0 | 0 | 0 | 0 | 43 | 0
CCN(CC)c1ccc2nc3ccccc3[n+](CC)c2c1 | - | 0 | 0 | - | - | -
CCN(CC)c1ccc2nc3ccc(N)cc3[n+](-c3ccccc3)c2c1 | + | 0 | 0 | 0 | 0 | 0
C/C=C/c1ccc2c(c1)O[C@H](CN(C)C(=O)c1ccccn1)[C@H](C)CN([C@@H](C)CO)S2(=O)=O | 0 | 0 | - | 0 | 0 | 0
COc1cccc(-c2ccc([C@H]3[C@H]4CN(CC5CC5)CCCCN4[C@H]3CO)cc2)c1 | 0 | 0 | - | 0 | 0 | 0
CN(C)C(=O)c1cccc(-c2ccc([C@H]3[C@@H](CO)N4CCCCN(S(C)(=O)=O)C[C@@H]34)cc2)c1 | 0 | 0 | - | 0 | 0 | 41
COc1cccc(-c2ccc([C@H]3[C@H](CO)N4CCCCN(CC5CC5)C[C@@H]34)cc2)c1 | 127 | 0 | - | 0 | 0 | 0
CN(C)C(=O)c1ccc(-c2ccc([C@@H]3[C@H](CO)N4CCCCN(CC5CCOCC5)C[C@@H]34)cc2)cc1 | 0 | 0 | - | 0 | 0 | 0
